Ab-14 light chain CDR variants: yeast mating affinities

The target is the same throughout: PDVDLGDISGINAS, from the HR2 region of SARS-CoV-2 spike.

Each scFv is VH, three GGGGS repeats, VL, as in the parent Ab-14, and differs from it in the CDRs of the light chain only.
VH: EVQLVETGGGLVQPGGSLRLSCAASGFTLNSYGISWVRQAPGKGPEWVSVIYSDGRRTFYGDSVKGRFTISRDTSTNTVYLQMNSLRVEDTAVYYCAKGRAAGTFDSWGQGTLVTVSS
VL: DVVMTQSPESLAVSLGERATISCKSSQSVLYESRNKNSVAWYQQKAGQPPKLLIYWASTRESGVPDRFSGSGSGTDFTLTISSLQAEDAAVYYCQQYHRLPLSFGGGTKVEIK

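The parent was found by panning a naive human phage display library on the peptide. The variants were designed computationally from a first round of random CDR variants and then made and measured. Several design methods are mixed in this list. The scFvs were displayed on barcoded MATa yeast, the peptide on MATalpha yeast. Mating (16 h, 30 °C) was followed by selection of diploids and sequencing of their barcodes. Scores were corrected for input abundance and mapped to Kd with protein pairs of known affinity run in the same pool. There are six technical replicates.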

Variants are written as CDR1, CDR2 and CDR3 of the light chain (limits as in the source). Parent: KSSQSVLYESRNKNSVA, WASTRES, QQYHRLPLS.
Variants here have more than six changes.
Numbers give log10(Kd / nM), so 0 is 1 nM and 3 is 1 µM. Smaller is tighter.
Replicates are averaged; those with no signal do not enter the mean.
Where no diploid with the target was found in that replicate, the entry reads "n.d.": below detection, most likely a poor binder, though not proof of it.
The authors' rule: three or more of the six replicates give a measured affinity, fewer mean a poor binder.

CDR-L1	CDR-L2	CDR-L3	log10 Kd, replicates	mean log10 Kd (nM)
MVLKEDFQEYAAKNAVA	NAAEKET	QHYARLPLV	1.22 0.54 1.39 0.74 1.03 1.36	1.05
KVSQLQDYGSRNKNSVA	NASQREH	QQYHRLPLS	0.52 0.23 0.14 0.21 0.00 0.37	0.25
HISMSVGLTQFNKNSVA	ENSTREN	QQYDRLPLS	1.53 2.03 2.55 1.36 1.70 1.49	1.78
IVSQMMLWGMHLKNSIA	EAQTRLN	QQYDRLPLF	n.d. n.d. 2.20 n.d. n.d. n.d.	2.20
KITHQMFTGMMQKSAMA	NGAMRVE	QFYSRLPLF	0.55 -0.24 0.45 -0.16 -0.17 -0.10	0.06
ILSDSVLTEMRNKNSVA	DNSTRES	QQYDRLPLS	n.d. 2.23 1.87 3.92 2.51 2.83	2.67
KLMTQVGHQMDHKNSIA	EVDMVAQ	QQYMHLPLI	0.61 0.91 1.19 0.82 0.68 0.67	0.81
MISMMHAMQYNEESSIA	DAEALNS	QQYHELPLS	n.d. n.d. n.d. n.d. n.d. n.d.	n.d.
HFAKQLTSLYNSKQNVA	NASTVMV	QHYNRLPLS	2.01 1.69 1.54 1.63 1.94 1.98	1.80
IVSQLMLWGMHVKNSIA	EASTRLN	QQYERLPLF	1.30 1.46 0.17 1.08 0.53 0.68	0.87
KVSQSVLQGDRNKSSVA	EASTRER	QQYHRLPLS	n.d. 1.51 0.68 0.50 0.87 1.68	1.05
MFSQLFMYGSRNYNSVA	QASTRES	QQYDRLPLI	n.d. n.d. n.d. 3.12 n.d. n.d.	3.12
KSSGSVEMLSRNVNNVA	EASTREL	QAYHRLPLS	0.81 0.58 0.51 0.82 0.56 0.36	0.61
QISGITGHQSMSKNNVA	EMVTRVN	QQYDRLPLS	0.60 0.47 0.35 0.10 0.38 0.55	0.41
TISQMTSLFSQSINNVA	EMSTREP	QQYDRLPLA	n.d. n.d. n.d. n.d. n.d. n.d.	n.d.
KFGYSVLTGSYVRNSVA	QQSTREN	QQYDRLPLS	0.87 1.85 n.d. 2.61 1.58 1.15	1.61
KLSQSELYEERNDNSVA	SASQRES	QDYHRLPLS	1.47 0.77 1.92 1.29 1.43 1.79	1.44
MISNEQDYGYSATNSVA	DVTEKCN	QQYKRLPLT	0.59 1.30 n.d. -0.35 0.44 1.40	0.68
KLRESYHVESKQKNNVA	DNSTRES	QDYHRLPLS	n.d. n.d. n.d. n.d. n.d. n.d.	n.d.
SLSESEREGFSHEQNIA	DGTEHMR	QQYFQLPLL	1.54 1.05 1.36 0.72 1.13 1.76	1.26
KISMMINMTFEQSNNVA	EMVTREK	QQYNRLPLS	n.d. n.d. 2.17 n.d. n.d. 2.77	2.47
MIHESYGNMVMKKNSIA	DNTTREN	QQYDRLPLS	2.04 2.54 2.67 2.63 2.16 2.26	2.39
HITYGMMVHGRHSKSIA	QAETRAK	QQYDRLPLM	0.72 1.44 1.49 1.31 n.d. 1.98	1.39
MISQLYNMGTFAINSVA	QASERSN	QQYDRLPLM	1.42 2.25 1.45 1.74 1.89 2.03	1.80
KLSMSMLLESFHKNSVA	ENSTREE	QHYHRLPLS	n.d. 3.31 2.53 3.05 2.07 2.82	2.76
KISQMFNVGTKNTNSLA	EMNTRGD	QDYHRLPLS	n.d. n.d. 0.91 1.17 n.d. n.d.	1.04
MITAMLRGVGRDKNSVA	NAQTREN	QHYNRLPLS	1.75 1.94 2.07 1.92 1.90 1.99	1.93
ALSQLELYESRNWNSVA	NASTREK	QQYHRLPLS	0.79 0.50 0.56 0.45 0.38 0.61	0.55
KISMTSENQLKQRNSVA	ELVTRVN	QQYNRLPLS	n.d. 1.12 1.04 1.14 1.76 n.d.	1.27
HITYGMQVMGRHSKSIA	QAEERAK	QQYDRLPLI	0.71 0.90 1.13 1.11 1.02 1.51	1.06
MVNGIMDHLSKNMNNVA	ETTTRNS	QQYDRLPLV	0.73 0.78 0.35 1.32 1.41 1.20	0.97
KLSSVTGHMSMAKNNVA	EMETREK	QQYERLPLS	0.96 0.96 1.24 1.14 1.21 1.07	1.10
VLGGQWGLGTTNNSSIA	NDSETML	QQYWRLPFM	n.d. 2.29 1.75 1.83 1.74 2.73	2.07
LLSGMVEEQLTRQNNIA	EGEFRDA	QQYNRLPLS	0.52 0.95 0.29 0.48 0.48 0.77	0.58
LLSQSSLYEQRNKNSVA	DASQRLS	QQYHRLPLS	0.21 0.19 -0.24 -0.44 -0.36 -0.27	-0.15
HISYSMGHLSKNKNSVA	NQQTRES	QQYHRLPLS	1.08 1.36 0.95 0.75 0.83 1.12	1.02
IVSQLMLVGMHAKNSIA	EASTRNN	QQYERLPLF	1.45 1.71 1.45 1.01 1.06 1.31	1.33
MLSQMWALGMKVKNSVA	QASIRFN	QQYDRLPLI	n.d. n.d. n.d. n.d. n.d. n.d.	n.d.
HITYGMQVAGRHSSSIA	QAEERAK	QQYDRLPLI	0.35 -0.04 0.16 0.12 0.01 0.37	0.16
QIDSFYQHGDDQNQAMA	DVTMRDQ	QQYSRLPLS	0.46 1.02 0.79 0.76 0.81 0.98	0.80
MISQLYNMGSFAINSVA	QASVRNE	QQYDRLPLQ	1.48 0.59 0.84 0.53 0.77 1.48	0.95
KVYQSHLYESRNDNNVA	QASYRES	QQYHRLPLS	1.01 1.64 1.73 0.73 1.73 0.71	1.26
HMSTLTLMGQRHRNSVA	QMTTREN	QQYDRLPLS	n.d. n.d. n.d. 2.38 2.30 n.d.	2.34
IVSQSVLGESRNINSVA	QTSEREY	QQYDRLPLS	1.30 0.76 0.87 1.07 1.01 0.85	0.98
KLRQVTGYEMYNKNSVA	QTSTRVS	QDYHRLPLS	1.21 1.10 1.11 1.17 0.99 0.96	1.09

Empty control strains, which show no peptide, gave a signal in 4% of pairings with all light chain designs; the median was 2.64 and 95% of these signals were weaker than 1.59. No background was subtracted.
The parent sequence was in this pool as ten entries: three were never detected, three once, and four in most replicates, with averages from 0.34 to 2.37.
Values of this round are not directly comparable with the first-round values of the same sequences.

The measurements come from Li et al. 2023 (doi:10.1038/s41467-023-39022-2) through the FLAb antibody collection.